Literature values, collected in patent US6815446B1, “Selective antagonists of A2B adenosine receptors” (Vanderbilt University, priority 1999, dated 2004).

Target: T1, A2B Receptor (Homo sapiens, UniProt P29275)
T1 sequence (P29275 1-332): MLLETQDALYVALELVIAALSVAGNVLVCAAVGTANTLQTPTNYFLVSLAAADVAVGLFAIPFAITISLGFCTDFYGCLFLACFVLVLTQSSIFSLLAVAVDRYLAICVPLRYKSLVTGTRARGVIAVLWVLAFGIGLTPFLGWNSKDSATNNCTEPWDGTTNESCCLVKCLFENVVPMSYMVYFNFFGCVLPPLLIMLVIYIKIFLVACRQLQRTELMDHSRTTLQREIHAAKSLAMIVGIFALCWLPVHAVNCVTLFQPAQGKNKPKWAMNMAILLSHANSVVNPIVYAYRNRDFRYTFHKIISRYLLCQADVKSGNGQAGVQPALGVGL
Settings: background statement; cited from earlier work

SMILES: CNC(=O)[C@H]1O[C@@H](n2cnc3c(NCc4cccc(I)c4)ncnc32)[C@H](O)[C@@H]1O [IB-MECA]
- Agonist activity or affinity at A2B receptors: very low affinity
